Measurements reported in US20210220285A1, “ACID RESISTANT CAPSULES” (Capsugel Belgium NV, priority 2016, published 2021).

Experiment: pKa of enteric polymer by titration

Substance: polyvinyl acetate phthalate
- pKa of the acid groups: about 5.0
